Experimental data: patent publication US20070243571A1, “Method for Measurement of Activity of Homocysteinethiolactone Hydrolyzing Enzyme” (priority 2004, published 2007)

Columns and labels:
HTL hydrolyzing enzyme [1] = test: Measurement of hydrolyzing enzyme activity for TBL (DTNB rate assay, H-7170 analyzer); assay type: biochemical, human; conditions: substrate TBL; for activity value of HTL hydrolyzing enzyme for TBL, No addition: Reagent 1(A): 0.5 mM CaCl2, pH 7.2, 37° C., no inhibitor; for activity value of HTL hydrolyzing enzyme for TBL, EDTA.2Na: Reagent 1(B): 2 mM EDTA; for activity value of HTL hydrolyzing enzyme for TBL, EDTA.2Na / activity value of HTL hydrolyzing enzyme for TBL, Physostigmine sulfate / activity value of HTL hydrolyzing enzyme for TBL, Neostigmine bromide: pH 7.2, 37° C.; for activity value of HTL hydrolyzing enzyme for TBL, Physostigmine sulfate: Reagent 1(C): 0.5 mM CaCl2, 0.1 mM physostigmine sulfate; for activity value of HTL hydrolyzing enzyme for TBL, Neostigmine bromide: Reagent 1(D): 0.5 mM CaCl2, 0.1 mM neostigmine bromide
Description: Hydrolyzing enzyme activity for TBL was measured with above-mentioned samples and unprepared serum.
Reagent 1(A): SH-group detection solution; 0.2 M MOPS buffer containing 0.5 mM CaCl2 and 1.0 mM DTNB (pH 7.2).
Reagent 1(B): SH-group detection solution; 0.2 M MOPS buffer containing 2 mM EDTA and 1.0 mM DTNB (pH 7.2).
Reagent 1(C): SH-group detection solution; 0.2 M MOPS buffer containing 0.5 mM CaCl2, 0.1 mM physostigmine sulfate and 1.0 mM DTNB (pH 7.2).
Reagent 1(D): SH-group detection solution; 0.2 M MOPS buffer containing 0.5 mM CaCl2, 0.1 mM neostigmine bromide and 1.0 mM DTNB (pH 7.2).
Reagent 2: substrate solution; aqueous solution containing 125 mM TBL (Aldrich).
For measurement of hydrolyzing enzyme activity TBL, H-7170 automatic analyzer (Hitachi, Ltd.) was used. Parameters for measurement were as follows.
(§1) Following the above parameters, 15 μl of a sample and 200 μl of reagent 1(A) or 1(B) or 1(C) or 1(D) was dispensed and mixed, and, after a certain length of time at a constant temperature (37° C., 5 min), 50 μl of reagent 2 was added and mixed to allow reaction to start. When reagent 2 was added to the mixture of the fraction containing serum, plasma, cholinesterase or HDL and reagent 1(A), increase in absorbance was detected which was due to the reaction of the SH-group detection reagent with 4-mercaptobutyric acid, which has a free SH group, formed by of HTL hydrolyzing enzyme.
(§2) The activity value of HTL hydrolyzing enzyme for TBL in each sample was calculated based on: the change in absorbance per unit of time (1 min) (ΔE) from 2-minute up to 4-minute time points after the addition of the substrate (reagent 2), the molecular extinction coefficient of 5-thio-2-nitrobenzoic acid at the wavelength of 480 nm, ε=2509, and the molecular extinction coefficient of the compound at the wavelength of 546 nm, ε=78.

HTL hydrolyzing enzyme [2] = test: Measurement of hydrolyzing enzyme activity for HTL (DTNB rate assay, H-7170 analyzer); assay type: biochemical, human; conditions: substrate DL-HTL; for activity value of HTL hydrolyzing enzyme, No addition: Reagent 1(A): 0.5 mM CaCl2, pH 7.8, 37° C., no inhibitor; for activity value of HTL hydrolyzing enzyme, EDTA.2Na: Reagent 1(B): 2 mM EDTA; for activity value of HTL hydrolyzing enzyme, EDTA.2Na / activity value of HTL hydrolyzing enzyme, Physostigmine sulfate / activity value of HTL hydrolyzing enzyme, Neostigmine bromide: pH 7.8, 37° C.; for activity value of HTL hydrolyzing enzyme, Physostigmine sulfate: Reagent 1(C): 0.5 mM CaCl2, 0.1 mM physostigmine sulfate; for activity value of HTL hydrolyzing enzyme, Neostigmine bromide: Reagent 1(D): 0.5 mM CaCl2, 0.1 mM neostigmine bromide
Description: Hydrolyzing enzyme activity for HTL was measured with purified water and above-mentioned samples.
Reagent 1(A): SH-group detection solution; 0.2 M MOPS buffer containing 0.5 mM CaCl2 and 1.0 mM DTNB (pH 7.8).
Reagent 1(B): SH-group detection solution; 0.2 M MOPS buffer containing 2 mM EDTA and 1.0 mM DTNB (pH 7.8).
Reagent 1(C): SH-group detection solution; 0.2 M MOPS buffer containing 0.5 mM CaCl2, 0.1 mM physostigmine sulfate and 1.0 mM DTNB (pH 7.8).
Reagent 1(D): SH-group detection solution; 0.2 M MOPS buffer containing 0.5 mM CaCl2, 0.1 mM neostigmine bromide and 1.0 mM DTNB (pH 7.8).
Reagent 2: substrate solution; aqueous solution containing 125 mM DL-HTL (Tokyo Chemical Industry Co., Ltd).
For measurement of HTL hydrolyzing enzyme activity, H-7170 automatic analyzer (Hitachi, Ltd.) was used. Parameters for measurement were as follows.
as §1, with “parameters, purified water,” for “parameters,”, “albumin” for “cholinesterase”, “1(A), 1(C) or 1(D),” for “1(A),”, “DL-homocysteine,” for “4-mercaptobutyric acid,”, “by hydrolysis” for “by”, “HTL.” for “HTL hydrolyzing enzyme.”
as §2, with “enzyme” for “enzyme for TBL”

Row | Substance | activity value of HTL hydrolyzing enzyme for TBL, No addition (HTL hydrolyzing enzyme [1]) | activity value of HTL hydrolyzing enzyme for TBL, EDTA.2Na (HTL hydrolyzing enzyme [1]) | activity value of HTL hydrolyzing enzyme for TBL, Physostigmine sulfate (HTL hydrolyzing enzyme [1]) | activity value of HTL hydrolyzing enzyme for TBL, Neostigmine bromide (HTL hydrolyzing enzyme [1]) | activity value of HTL hydrolyzing enzyme, No addition (HTL hydrolyzing enzyme [2]) | activity value of HTL hydrolyzing enzyme, EDTA.2Na (HTL hydrolyzing enzyme [2]) | activity value of HTL hydrolyzing enzyme, Physostigmine sulfate (HTL hydrolyzing enzyme [2]) | activity value of HTL hydrolyzing enzyme, Neostigmine bromide (HTL hydrolyzing enzyme [2]) | activity value of HTL hydrolyzing enzyme for TBL, No addition (HTL hydrolyzing enzyme [1]; listed as A-1653)
1 | HSA 05418: Human albumin (05418, Fluca) dissolved in purified water, 5% human albumin solution | 8 | 8 | 6 | 7 | 31 | 30 | 28 | 31 | –
2 | HSA 126654: Human albumin (126654, Calbiochem) dissolved in purified water, 5% human albumin solution | 1 | 1 | 0 | 1 | 19 | 17 | 17 | 21 | –
3 | HSA A-1653: Human albumin (A-1653, Sigma) dissolved in purified water, 5% human albumin solution | 32 | 29 | 2 | 2 | 26 | 22 | 25 | 20 | observed
4 | HSA A-1887: Human albumin (A-1887, Sigma) dissolved in purified water, 5% human albumin solution | 7 | 8 | 4 | 5 | 28 | 25 | 26 | 27 | –
5 | HSA A-3782: Human albumin (A-3782, Sigma) dissolved in purified water, 5% human albumin solution | 2 | 2 | 2 | 2 | 26 | 23 | 28 | 28 | –
